Data from patent US8076373B2, “Method for treating mammalian diseases and injuries caused by the over-expression of peroxynitrite” (North Cell Pharmacetical, priority 2001, dated 2011).

Assays:
[1] = tested on: skin; test: pilot open patch testing on known sensitive skinned individuals
[2] = tested on: laser skin resurfacing wound; test: split upper lip laser skin resurfacing wound model; assay type: in vivo, human; conditions: patient diaries

- Pain [2]: increase in pain
SMILES: O=C([O-])CCC(=O)C(=O)[O-].[Na+].[Na+] [α-keto-glutaric acid, sodium salt]
- Irritation [1]: red skin irritations and welt-like reactions
